The values below come from patent EP2397477B1, “Heterocyclic-substituted piperidine compounds and the uses thereof” (dated 2008).

Sequences of proteins named here, by UniProt entry; tags and fusion partners are left off. A change or cut given only in a name is not applied to a line headed by its entry.
UniProt P41146: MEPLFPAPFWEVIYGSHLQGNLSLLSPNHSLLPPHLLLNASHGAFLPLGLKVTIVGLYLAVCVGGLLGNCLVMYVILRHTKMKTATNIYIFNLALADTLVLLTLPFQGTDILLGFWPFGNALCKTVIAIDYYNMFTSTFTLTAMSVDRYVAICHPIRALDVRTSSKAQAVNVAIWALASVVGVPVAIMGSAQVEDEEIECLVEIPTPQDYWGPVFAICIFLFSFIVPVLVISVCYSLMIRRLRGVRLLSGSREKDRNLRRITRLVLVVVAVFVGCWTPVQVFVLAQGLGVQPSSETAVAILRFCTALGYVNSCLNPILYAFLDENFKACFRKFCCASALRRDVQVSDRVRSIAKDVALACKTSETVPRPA

The target in the assay is human opioid receptor-like receptor (ORL-1) (Homo sapiens, UniProt P41146). Put plainly: In vitro ORL-1 receptor binding assay ([3H]-nociceptin displacement). To be noted: read-out: Ki [Average ± Std Deviation] (nM) ORL-1; membranes from recombinant HEK-293 cells; 0.1 nM [3H]-nociceptin.
For the molecule `O=C(NCc1ccccc1)C1=C(n2c(=O)c(=O)[nH]c3ccccc32)CCN(C2CCCCCCC2)C1`, the Ki came out at 1780 nM. Under `O=C(C1=C(n2c(=O)c(=O)[nH]c3ccccc32)CCN(C2CCCCCCC2)C1)N1CCCCC1` stands 1760 nM; under `O=C(C1=C(n2c(=O)c(=O)[nH]c3ccccc32)CCN(C2CCCCCCC2)C1)N1CCOCC1`, 1960 nM.

The Ki is a measure of affinity in units of concentration, obtained from inhibition or displacement.
